# According to paper doi:10.1101/2025.02.26.640323, “Aggregation-Dependent Epitope Sequence and Modification Fingerprints of Anti-Aβ Antibodies” (bioRxiv, 2025):
# Legend:
# [1] = system: Aβ phosphorylated at Ser(8); test: PTM-Aβ microarray, pSer8; format: binding, human; conditions: optimized antibody concentrations (Aducanumabbs 0.02μg/mL; 1E4E11 0.25μg/mL), vs unphosphorylated
# Excerpt: Specific PTMs might be associated with different stages of AD progression and severity, offering potential biomarkers for diagnosis and prognosis. Targeting PTMs represents a potential therapeutic strategy to prevent Aβ aggregation and neurotoxicity, thereby slowing disease progression. […] Therefore, a selected group of PTM-carrying Aβ peptides (PTM-Aβ) were incorporated into the Aβ chip to explore the potential binding preference of selected Aβ-Abs, under optimized concentrations (Figure 3). The antibodies were tested with both PTM-Aβ and the corresponding unmodified variants to provide a head-to-head comparison. This screening was performed in the presence of Aβ phosphorylated at positions Ser(8) or Ser(26), N-terminal pE at position 3, racemization/isomerization of Asp at position 1, and unmodified N-terminal variants. The dataset is divided into sections (Figure 3 a–f) for enhanced visualization, where each antibody was screened simultaneously against all peptides to locate their epitope preferences. […] A set of antibodies without reported PTM preference was applied here as controls (refer to Table 1), namely 11H3, 101–1-1, IC16, 82E1 and 3D6.
# Figure 3. […] Blue and red shades indicate the binding strength over the related arrayed […] modified peptide shown on top and cognate anti-Aβ antibody to the left. […]
# [2] = system: Aβ1–42 monomer, oligomer and fibril preparations; AβpE3–40; test: Bistris-SDS gradient PAGE/Western blot; format: binding; conditions: 4–12% Bistris SDS-PAGE/Western blot, nitrocellulose
# Procedure: No SPR-487B) (StressMarq biosciences, Victoria, BC, Canada). The samples for electrophoresis were prepared (starting from stock solutions) with final concentrations of 0.1 μg/μL) in LDS sample buffer (247.5 mM Tris-HCl, pH 8.5, 2% (w/v) lithium dodecyl sulfate (LDS), 10% (v/v) glycerol, 0.5 mM EDTA, 0.22 mM Brilliant Blue G250, 0.175 mM Phenol Red) and denatured by heating at 70°C for 10 min. […] The prechilled transfer buffer contained 25 mM Tris, 192 mM glycine, 20% (v/v) methanol and 0.0375 % Tween-20. After blotting, the membrane was washed for 10 min at room temperature in Tris-buffered saline (TBS) followed by blocking for 30 min with 5% powdered milk in TBS containing 0.1% Tween-20 (TBS-T). The blots were then incubated with primary antibodies in 5% milk in TBS-T over night at 4°C and washed 3 × for 10 min with TBS-T at room temperature. […] After 1 h incubation with the secondary antibodies, the blots were washed 3 × for 10 min with TBS-T and incubated for 5 min with ECL-Prime Western Blotting Detection Reagent (Cytiva Amersham, Little Chalfont, England). Images were recorded on a Vilber-Loumart Fusion SL blot imager. […] That way, the 4G8 reprobing signals were essentially added on top of the initial signals and background artifacts.
# [3] = system: Aβ vascular and parenchymal deposits in AD brain sections; test: Immunohistochemistry on AD brain tissue with antibody pre-adsorption; conditions: Lecanemabbs (PX-TA1746) 0.06 μg with 0.25 μg, human AD brain
# Procedure: Immunohistochemistry was performed on 4-μm paraffin sections. In brief, brain sections were deparaffinized in Roticlear (Carl Roth, Karlsruhe, Germany) and rehydrated in a descending series of ethanol. Activity of endogenous peroxidases was blocked by incubation in 0.3% H2O2 in PBS for 30 min. […] Antibodies and peptides were incubated on a rotator for 3 h at room temperature and reaction tubes were centrifuged at 13000 rpm for 5 min at the end of the incubation period. Control conditions included antibodies in 0.01 M PBS including 10% FCS without synthetic peptides. Adjacent paraffin-embedded sections from a human AD case were incubated overnight with the supernatants and sections were washed with 0.01 M PBS including 0.1 % Tergitol. For detection, biotinylated anti-human antibodies (6 μg/ml, Jackson ImmunoResearch, West Grove, Pennsylvania, USA #109-065-003) were used and staining was visualized with the ABC method with a Vectastain kit (Vector Laboratories, Newark, California, USA), diaminobenzidine as a chromogen and counterstaining with hematoxylin.
substance,measurement,setting,value
"Aducanumabbs: human monoclonal, biosimilar of Aducanumab, Proteogenix (#PX-TA1335)",preference for pSer8 Aβ,[1],showed preference for Aβ peptide fragments phosphorylated at Ser(8); also recorded: preference of Aducanumabbs for phosphorylated pSer8-Aβ(−1–14) and pSer8-Aβ1–15 over unphosphorylated Aβ-related 15-mers; also recorded: high selectivity for phosphorylated pSer8-Aβ1–15 over unphosphorylated Aβ1–15
same,detection of fibrillar Aβ1–42,[2],clearly detected highly aggregated fibrillar Aβ1–42
same,IHC immunoreactivity after pre-adsorption with Aβ1–42 fibrils,"[3]; Aducanumabbs 0.5 μg with 5 μg fibrils, antibody for IHC: Aducanumabbs 0.5 μg/μl (so in the source)",largely blocked
same,IHC immunoreactivity after pre-adsorption with Aβ1–42 monomers,[3]; Aducanumabbs 0.5 μg with 10 μg monomers,in contrast to pre-adsorption with an excess of Aβ1–42 monomers

# “Also recorded” adds a separate entry of the source.
